Patent US8575382B2, “Low molecular weight pharmacological activity modulators” (“Ivy Pharm” LLC, priority 2009, dated 2013)

Biological target: T1, epidermal growth factor receptor (Homo sapiens, UniProt P00533)
T1 construct: endogenous in cells; host or cells: A431 human epidermoid carcinoma cells
Assay: Tyrosine-kinase activity of the EGF receptor in A431 cells (immunoblotting, densitometry)
Type: cell-based
Procedure: A431 line human epidermoid carcinoma cells, obtained from the All-Russian Cell Culture Collection (Russian Academy of Sciences Institute of Cytology, St. Petersburg).
Cells are cultured in a CO2 incubator (New Brunswick Scientific) at +37° C. and with a CO2 content of 5%. Cells are grown in these conditions to a monolayer culture and are exposed to the action of the test compounds.
The DMEM medium (OOO PanEko, Moscow) with the addition of gentamicin K (80 mg/l), L-glutamine (300 mg/l) and fetal serum (PAA, Austria) to a final concentration of 10%, is used for culturing cells. Cells are transferred to a medium with a reduced serum content of 0.5% 24 hours before commencing an experiment.

COc1cc2ncnc(Nc3cccc(Cl)c3)c2cc1OC [AG1478, tyrphostin AG 1478]
effect on EGF receptor tyrosine-kinase activity initiated by EGF (1 μg/ml, late stages of incubation (1, 4 and 8 hours)): statistically non-reliable increase
reduction of the tyrosine-kinase activity of the EGF receptor (2.5 μg/ml, before EGF): 30%
EGF receptor tyrosine-kinase activity (5 μg/ml and 7.5 μg/ml, before EGF): no EGF receptor tyrosine-kinase activity was detected
effect on EGF receptor tyrosine-kinase activity initiated by EGF (0.1, 0.25, 0.5 and 0.75 μg/ml): did not affect
effect on stimulation of EGF receptor tyrosine-kinase activity by EGF (inhibitor 7.5 μg/ml acting 15, 20, 25 and 30 min before EGF 200 ng/ml, early and late times): completely eliminated stimulation
tyrosine-kinase activity retained by the receptors (inhibitor 7.5 μg/ml, 10 min before EGF 200 ng/ml, late times (1 hour, 4 and 8 hours)): 10-15%
concentrations that completely inhibit the tyrosine-kinase activity of the EGF receptor (introduced 10-25 min before epidermal growth factor): 3 to 7 µg/mL
